{
  "sequences": {"note": "Sequences of proteins named here, by UniProt entry; tags and fusion partners are left off. Residues count along the entry.", "UniProt P10636, 2-441 isoform P10636-8 limits assumed": "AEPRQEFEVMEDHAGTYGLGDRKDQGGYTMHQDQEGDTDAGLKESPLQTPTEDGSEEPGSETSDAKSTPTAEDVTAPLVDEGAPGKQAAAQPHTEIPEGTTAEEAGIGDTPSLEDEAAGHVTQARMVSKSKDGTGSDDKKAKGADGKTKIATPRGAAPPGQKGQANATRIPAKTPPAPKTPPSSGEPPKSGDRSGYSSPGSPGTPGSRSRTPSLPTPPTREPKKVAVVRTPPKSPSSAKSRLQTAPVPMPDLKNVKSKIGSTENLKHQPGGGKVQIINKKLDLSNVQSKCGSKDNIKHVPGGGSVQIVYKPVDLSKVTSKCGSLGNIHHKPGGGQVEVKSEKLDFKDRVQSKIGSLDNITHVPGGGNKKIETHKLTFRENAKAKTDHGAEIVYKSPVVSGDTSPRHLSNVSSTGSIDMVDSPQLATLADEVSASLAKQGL"},
  "source": "patent US12612372B2",
  "about": "“Oxopyridazinyl-phenyl-carbonohydrazonoyl dicyanide compound and use thereof” (KOREA INSTITUTE OF SCIENCE AND TECHNOLOGY, priority 2020, dated 2026)",
  "target": "T1, tau protein (Homo sapiens, UniProt P10636)",
  "T1 construct": "fused on or other part: Split Venus fragments VN173 and VC155, each fused to one copy of tau as BiFC reporter halves",
  "experiment": "Tau-BiFC cell model, Forskolin-induced tau protein aggregation",
  "format": "cell-based",
  "settings": "48 hours",
  "protocol": "In order to select novel tau protein aggregation—inhibiting substances, tau-BiFC cell model, in which formation of tau oligomers in living cells is easily observed, was used. Tau-BiFC cells were aliquoted into a 384-well plate. […] After 48 hours, nuclei in the cells were stained using Hoechst (at a treatment concentration of 2 μg/mL), and BiFC fluorescence intensity was automatically measured using Operetta (PerkinElmer) to count stained nuclei in each well out of the entire well plate. […] Furthermore, the degree of cytotoxicity induced by the newly synthesized compound was also measured based on the 100% cell viability of the group treated only with Forskolin as a reference, and the cytotoxicity value of each compound was calculated using the equation “(number of stained nuclei in group treated with compound/number of stained nuclei in group treated with Forskolin)×100”.\nAfter 48 hours, tau protein aggregation reaction and degrees of cytotoxicity were analyzed by observing images of the cells. IC50 and toxicity of the compounds were analyzed by nonlinear regression analysis of Prism software (Graph Pad).",
  "data": [
    {"smiles": "CC(C)N1N=C(c2ccc(NN=C(C#N)C#N)cc2)CCC1=O", "note": "[Example 1, (4-(1-isopropyl-6-oxo-1,4,5,6-tetrahydropyridazin-3-yl)phenyl)carbonohydrazonoyl dicyanide]", "values": [
      {"measurement": "Tau BiFC in cells Response (%, @10 μM)", "setting": "10 μM compound, BiFC fluorescence relative to Forskolin-only group (100% tau protein-aggregated state)", "result": 0, "unit": "%"},
      {"measurement": "IC50", "setting": "Tau BiFC in cells IC50, tau-BiFC cells, Forskolin 30 μM", "result": 300, "unit": "nM"}
    ]}
  ]
}
